From patent US20250000864A1, “GONADOTROPIN-RELEASING HORMONE ANTAGONIST, AND PREPARATION METHOD THEREFOR AND USE THEREOF” (SHANDONG LUYE PHARMACEUTICAL CO., LTD., priority 2021, published 2025)

Tests used:
Caco-2 cells = assay: Caco-2 two-way permeability and efflux; format: in vitro ADME; details: Caco-2, 120 min incubation
[1] = Pharmacokinetics in SD rats (i.v. and i.g.); format: in vivo

COCCN(C)Cc1c(-c2ccc(NC(=O)NOC)cc2)sc2c1c(=O)n(-c1ccc(OC)nn1)c(=O)n2Cc1c(F)cccc1F
Mean Papp A to B (Caco-2 cells): 0.0317 10^−6 cm/s | AUClast ([1]; i.g 12 mg/kg): 604 ± 165 ng·h/mL | Cmax ([1]; i.g 12 mg/kg): 220 ± 32 ng/mL | MRTlast ([1]; i.g 12 mg/kg): 4.84 ± 2.10 h | AUClast ([1]; i.v 1 mg/kg): 460 ± 163 ng·h/mL | C0 ([1]; i.v 1 mg/kg): 822 ± 274 ng/mL | MRTlast ([1]; i.v 1 mg/kg): 1.16 ± 0.13 h
